Assay results from paper PMC5858991 (Neuropharmacology, 2018).

Chains of the proteins cited; added tags and fusions are not shown.
UniProt Q99720, whole entry: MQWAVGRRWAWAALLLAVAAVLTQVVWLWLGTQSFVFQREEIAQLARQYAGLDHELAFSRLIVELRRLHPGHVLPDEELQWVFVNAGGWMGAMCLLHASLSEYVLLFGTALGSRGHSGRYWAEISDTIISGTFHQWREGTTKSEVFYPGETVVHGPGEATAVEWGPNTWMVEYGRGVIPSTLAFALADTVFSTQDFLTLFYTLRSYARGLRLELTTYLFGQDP

Assays:
[1] = biological target: σ1R homomer (Homo sapiens, UniProt Q99720); test: Drug induced σ1R homomer BRET; type: cell-based
[2] = biological target: σ1R (Homo sapiens, UniProt Q99720)
[3] = biological target: FH-σ1R (Homo sapiens, UniProt Q99720)
[4] = biological target: σ1R-BiP interaction (Homo sapiens, UniProt Q99720); settings: σ1-NL:VN-BiP, 2.5 and 10 min
[5] = BRET-transfected whole HEK293T cells
[6] = intact whole non-transfected HEK293T cells

SMILES	effect on σ1R homomer BRET in competition mode ([1]; 1 μM haloperidol or 1 μM PD144418 added prior to tested ligand)	effect on σ1R homomer BRET signaling ([1]; single-ligand mode, σ1-NL:σ1-VN, 2.5-60 min)	Bmax from binding kinetics [2, 5] [fmol/mg]	Bmax from binding kinetics ([2]; HEK293T membrane preparation) [fmol/mg]	Bmax from binding kinetics [2, 6] [fmol/mg]	effect on σ1R multimer band ([3]; haloperidol 0.1 or 1 μM, (+)-pentazocine 10 μM, non-denaturing gel)	inhibition of multimer-promoting effect of haloperidol ([3]; haloperidol:(+)-pentazocine 0.1:10 μM and 1:10 μM)	drug induced σ1R-BiP BRET change [4]
CC(C)=CCN1CC[C@]2(C)c3cc(O)ccc3C[C@H]1[C@H]2C [(+)-pentazocine]	dose-dependent effects	no detectable effects on BRET signaling	4289 ± 2745	871 ± 403	1041 ± 540	decreased the density of multimer bands	inhibited haloperidol's effect in a dose dependent manner	bimodal dose response effect
CC(C)=CCN1CC[C@]2(C)c3cc(O)ccc3C[C@H]1[C@H]2C [[^3H]-(+)-pentazocine]			4289	871	1041			

Where two headings read alike, the source gives them in different places.
